Measurements: patent publication US9381182B2, “Anthranilic acid derivatives: novel inhibitors of advanced glycation end-products (AGEs) formation” (priority 2013, dated 2016)

Tests used:
[1] = tested on: rat hepatocytes (CC1-Cell line); test: AGE-mediated reduced growth of rat hepatocytes, MTT assay; format: cell-based; conditions: 200 μg/mL, no test compound
Method: Methodology: Normal, rat hepatocytes (CC1-Cell line) was purchased from ATCC, Manassas, Va., USA. MEM (Minimum Essential Medium) with L-glutamine, trypsin-EDTA, sodium bicarbonate and penicillin-streptomycin were obtained from Sigma, St. Louis, Mo., USA. 96-well tissue culture treated, sterile, round bottom plates were acquired from Thermo Fisher Scientific, Waltham, Mass., USA. […]
Absorbance Detection: The absorbance of the colored solution was measured at 540 nm by Spectra Max Spectrophotometer, Applied Biosystems, CA, USA.
Estimation of Percentage Inhibition of AGE-Induced Diminished Cellular Proliferation: The percentage inhibition of AGEs-mediated diminished rat hepatocytes proliferation in the presence or absence of novel antiglycation agent, anthranilic acid derivative, was estimated by the following formula. % Inhibition=100−[(Absorbance of test compound−Absorbance of blank)/(Absorbance of control−Absorbance of blank)×100] […]

[2] = tested on: rat hepatocytes (CC1-Cell line); test: Fructose-derived AGE-mediated intracellular ROS generation, DCFH-DA technique; format: cell-based; conditions: 200 μg/mL, no test compound, 24 hours
Method: Methodology: DCFH-DA (Dichlorofluorescin diacetate), H2O2 (Hydrogen peroxide), DMSO (Dimethyl sulfoxide) and PBS (Phosphate buffer saline) were obtained from Sigma, St. Louis, Mo., USA. 96-well black fluorescence plates (Tissue culture treated) were purchased from Thermo Fisher Scientific, Waltham, Mass., USA.
Assay Method: Briefly, rat hepatocytes (CC1-Cell line, 6×10^4 cells/mL) were loaded on a black fluorescence 96-well tissue culture treated plate for 24 hours at 37° C. in an incubator, containing 5% CO2. […]
Fluorescence Detection: The intensity of green fluorescence, which is emitted upon the oxidation of the probe in the presence of intracellular ROS, is measured at the excitation and emission wavelength of 490 nm and 520 nm, respectively, by Spectra Max Spectrophotometer, Applied Biosystems, CA, USA.
Estimation of Percentage Inhibition of AGE-Induced Intracellular Generation of ROS by Novel Anthranilic Acid Derivatives: The percentage inhibition of AGEs-mediated intracellular generation of ROS in rat hepatocytes in the presence or absence of novel antiglycation agent, anthranilic acid derivative, was estimated by the following formula. % Inhibition=100−[(Fluorescence of test compound−Fluorescence of blank)/(Fluorescence of control−Fluorescence of blank)×100] […]

With “HSA: Human serum albumin, unglycated, comparison for AGEs in Tables 2 and 4” the “% Inhibition of hepatocyte proliferation” value [1] was 15.6%, the “Absorbance (Average)” value ([1]; 540 nm) was 1.11 and the “Fluorescence (Average), ROS production” value [2] was 92.3.
